# Assay results reported in PubChem BioAssay AID624465 (National Center for Advancing Translational Sciences (NCATS), 2012).
# The chains behind the UniProt entries cited, without tags or fusion partners.
# UniProt P14416, whole entry: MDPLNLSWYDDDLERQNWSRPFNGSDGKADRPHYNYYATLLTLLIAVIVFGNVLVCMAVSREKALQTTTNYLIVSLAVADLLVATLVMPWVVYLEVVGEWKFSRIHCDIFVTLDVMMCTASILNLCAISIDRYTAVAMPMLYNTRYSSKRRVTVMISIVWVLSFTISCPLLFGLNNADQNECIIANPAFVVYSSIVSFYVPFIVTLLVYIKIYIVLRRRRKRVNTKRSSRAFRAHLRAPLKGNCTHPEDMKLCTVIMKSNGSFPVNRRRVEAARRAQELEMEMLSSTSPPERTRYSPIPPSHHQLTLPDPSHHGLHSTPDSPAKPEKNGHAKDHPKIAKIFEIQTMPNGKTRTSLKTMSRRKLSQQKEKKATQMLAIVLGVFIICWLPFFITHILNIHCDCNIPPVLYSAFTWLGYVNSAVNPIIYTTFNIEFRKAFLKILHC
# This is a selection; strong and weak results do not stand in their true shares. Active and inactive are the calls of the source. Rule as the data show it: active = activation above about 40%; inconclusive = between about 15% and that limit; inactive = weaker than that.
# Biological target: D(2) dopamine receptor (Homo sapiens) (UniProt P14416)
# Test: Beta-Arrestin HTS for Positive Allosteric Modulators of the Human D2 Dopamine Receptor: Agonists
# Details: DiscoveRx PathHunter D2 beta-arrestin, luminescence, 90 min; active compounds read high; 100% = 57 uM dopamine signal
# Source text: There is great interest in identifying small molecule ligands for G-protein coupled receptors (GPCRs) as nearly 50% of all FDA-approved drugs target these important receptor proteins. […] Amongst the dopamine receptors (DARs), the D2 is arguably one of the most validated drug targets in neurology and psychiatry. For instance, all receptor-based antiparkinsonian drugs primarily work via stimulating the D2 DAR, whereas all FDA-approved antipsychotic agents are antagonists of this receptor. The D2 DAR is also therapeutically targeted in other disorders such as restless legs syndrome, tardive dyskinesia, Tourette's syndrome, and hyperprolactinemia.
# To this end, a miniaturized qHTS screen was developed to be screened against the Molecular Libraries Small Molecule Repository (MLSMR). This assay seeks to identify agonists against the D2 DAR.
# NIH Molecular Libraries Probe Production Network [MLPCN] […]
# DiscoveRx D2 cells were thawed from frozen stock and seeded at 2,100 cells/ 3 uL/well media (DiscoveRx Plating Reagent 2) with MultiDrop Combi dispenser (Thermo Scientific, Logan, UT) onto white tissue culture treated 1536-well Aurora plates (Brooks Automation, Chelmsford, MA) and allowed to attach overnight at 37 deg C, 5% CO2. […] The plates were incubated at ambient temperature for 1 hour and then the luminescent signal was read on ViewLux plate reader (PerkinElmer, Waltham, MA).
row,Structure (SMILES),activation
1,CCC(=O)N(c1ccccc1)C1(COC)CCN(CCn2nnn(CC)c2=O)CC1,inactive: 1.48%
2,CCC(=O)N(c1ccccc1)C1(COC)CCN(CCc2cccs2)CC1,inactive: 2.61%
